Measured values reported in PubChem BioAssay AID504651 (National Center for Advancing Translational Sciences (NCATS), 2011).
The list shows a part of the results, in another mix than the full data. Calls of active or inactive are those of the source. Rule as the data show it: active = potentiation above about 30%; inactive = the rest.

Protein sequences, listed by entry. Tags and fused reporters are not part of them.
UniProt P21728, whole entry: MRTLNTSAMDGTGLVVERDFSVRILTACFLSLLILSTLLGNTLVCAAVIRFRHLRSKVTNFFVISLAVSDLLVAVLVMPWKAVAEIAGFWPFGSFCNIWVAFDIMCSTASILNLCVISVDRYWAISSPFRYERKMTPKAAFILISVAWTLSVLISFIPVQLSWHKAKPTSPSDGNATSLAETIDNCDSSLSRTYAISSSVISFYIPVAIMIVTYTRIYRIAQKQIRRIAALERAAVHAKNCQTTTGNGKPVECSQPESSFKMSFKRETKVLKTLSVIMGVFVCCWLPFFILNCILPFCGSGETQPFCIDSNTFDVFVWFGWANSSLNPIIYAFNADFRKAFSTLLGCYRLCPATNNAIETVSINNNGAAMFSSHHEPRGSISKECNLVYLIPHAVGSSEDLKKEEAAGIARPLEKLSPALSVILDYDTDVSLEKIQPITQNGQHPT

molecular target: D(1A) dopamine receptor (Homo sapiens) (UniProt P21728); experiment: Potentiators of Human D1 Dopamine Receptor: qHTS; settings: HEK293 TREx D1 cells, calcium flux, dopamine EC20 potentiation; at 10 µM; active compounds read high; also: 0% is about no effect
Description: Dopamine receptors (DARs) are involved in the etiology and/or therapy of a number of neuropsychiatric and endocrine disorders. For instance, all receptor-based antiparkinsonian drugs work via stimulating the D1 DAR subtype whereas all FDA-approved antipsychotic agents are antagonists of this receptor. […] There are three different types of allosteric modulators that we are seeking, two of which will stimulate or augment receptor signaling, allosteric agonists and potentiators, while the third, allosteric antagonists, will attenuate receptor signaling. The present primary screening assay measures compound potentiation of an EC20 dopamine response by tracking calcium flux in a […], inducible Hek293 Trex D1 cell line.
NIH Chemical Genomics Center [NCGC]
NIH Molecular Libraries Probe Centers Network [MLPCN]
Assay Submitter (PI): David Sibley
Freshly passaged cells are plated in 1536 well black, clear bottom plates at a density of 4000 cells/well in 3 ul of complete media containing 1x tetracycline inducer. After an overnight incubation at 30 C in 5% CO2, cells are loaded with 2 ul of the no wash Calcium Assay Kit (ABD Bioquest) and incubated at room temperature for 30 to 90 minutes. A 10 cycle (1 second/cycle) baseline measurement is taken and then the FDSS online 1536 pintool delivers 23 nl of compound library (as well as dopamine controls) to the plate. The plate is measured for kinetically at 1 cycle/sec for 180 seconds and is considered to be the agonist portion of the assay (eg, compounds which activate a positive calcium response during this portion are flagged as potential agonists). Following the 180 second read, 1 ul of an EC20 of dopamine is delivered by an onboard pipette head. Measurements are taken kinetically for an additional 180 seconds.

Q: CCOC(=O)c1ccc(NP(C)(=O)Oc2ccc(Cl)cc2)cc1 (stereo not drawn) was tested. Which potentiation did it give?
A: The potentiation was inactive: -0.9%.

Q: Which potentiation does the source give for CP(=O)(OC12CC3CC(CC(C3)C1)C2)OC12CC3CC(CC(C3)C1)C2 here?
A: Its potentiation is inactive: 0%.

Q: With O=C(OCCCN1CCCC1)C(O)(c1ccccc1)C1CCCCC1 (stereo not drawn) as the compound, how does the potentiation read?
A: Its potentiation is inactive: 3.7%.

Q: COc1ccccc1OP(C)(=O)Nc1c(C)n(C)n(-c2ccccc2)c1=O (stereo not drawn) was tested. Which potentiation did it give?
A: The potentiation was inactive: -3.3%.

Q: Which potentiation does the source give for CCc1ccc(OP(C)(=O)Nc2cccnc2)cc1 (stereo not drawn) here?
A: The potentiation was inactive: 1.76%.

Q: How did the potentiation turn out when CP(=O)(Oc1ccccc1)N1CCOC1=O (stereo not drawn) was run?
A: Its potentiation is inactive: -4.9%.

Q: For COc1ccc(OP(C)(=O)Nc2ccc(Br)cc2)cc1 (stereo not drawn), which potentiation is on record?
A: The potentiation was inactive: -1.3%.

Q: Which potentiation does the source give for CCN(CC)CC(O)COC(=O)C(O)(c1ccccc1)C1CCCCC1 (stereo not drawn) here?
A: The potentiation was inactive: -3.4%.

Q: With CN(C)C(=O)c1c([N+](=O)[O-])cc([N+](=O)[O-])cc1[N+](=O)[O-] as the compound, how does the potentiation read?
A: The potentiation was inactive: -0.7%.

Q: How did the potentiation turn out when CC(C)(C)c1ccc(OP(C)(=O)O)cc1 was run?
A: Its potentiation is inactive: 1.75%.

Q: How did the potentiation turn out when COc1ccccc1OP(C)(=O)Nc1ccccc1Br (stereo not drawn) was run?
A: The potentiation was inactive: -4.15%.

Q: For CP(=O)(Nc1ccc(Cl)cc1)Oc1ccc(F)cc1 (stereo not drawn), which potentiation is on record?
A: Its potentiation is inactive: -5.55%.

Q: COc1ccc(OP(C)(=O)Nc2ccccn2)cc1 (stereo not drawn) was tested. Which potentiation did it give?
A: The potentiation was inactive: -4.05%.

Q: Which potentiation does the source give for CN(C)CCOC(=O)C(O)(c1ccccc1)C1CCCC1 (stereo not drawn) here?
A: The potentiation was inactive: -4.35%.

Q: How did the potentiation turn out when COc1ccccc1OP(C)(=O)Nc1ccc(Br)cc1 (stereo not drawn) was run?
A: The potentiation was inactive: -4.4%.

Q: For COc1ccccc1OP(C)(=O)Nc1ccc(C)cc1C (stereo not drawn), which potentiation is on record?
A: The potentiation was inactive: -3.65%.

Q: How did the potentiation turn out when CP(=O)(Nc1ccccn1)Oc1ccccc1 (stereo not drawn) was run?
A: Its potentiation is inactive: -0.2%.

Q: CCc1ccc(OP(C)(=O)O)cc1 was tested. Which potentiation did it give?
A: The potentiation was inactive: -1.05%.

Q: How did the potentiation turn out when O=[N+]([O-])c1cc([N+](=O)[O-])c(Nc2ccccn2)c([N+](=O)[O-])c1 was run?
A: The potentiation was inactive: -6.85%.

Q: With Cc1c(NP(C)(=O)Oc2ccc(C(C)C)cc2)c(=O)n(-c2ccccc2)n1C (stereo not drawn) as the compound, how does the potentiation read?
A: Its potentiation is inactive: -0.75%.

Q: How did the potentiation turn out when COc1ccccc1OP(C)(=O)Nc1ccc(C)c(C)c1 (stereo not drawn) was run?
A: Its potentiation is inactive: -0.05%.

Q: With COc1ccc(OP(C)(=O)Nc2ccccc2Br)cc1 (stereo not drawn) as the compound, how does the potentiation read?
A: The potentiation was inactive: -6.75%.

Q: With Cc1cc(C)cc(OP(C)(=O)Nc2cccc(C(F)(F)F)c2)c1 (stereo not drawn) as the compound, how does the potentiation read?
A: Its potentiation is inactive: -2.95%.

Q: CP(=O)(OCCOc1ccccc1)OCCOc1ccccc1 was tested. Which potentiation did it give?
A: Its potentiation is inactive: -7.44%.

Q: How did the potentiation turn out when CP(=O)(Nc1ccc(Cl)cc1Cl)Oc1ccccc1 (stereo not drawn) was run?
A: The potentiation was inactive: -1.85%.

Q: Cc1nc2ccc3ccccc3c2o1.O=[N+]([O-])c1cc([N+](=O)[O-])c(O)c([N+](=O)[O-])c1 was tested. Which potentiation did it give?
A: The potentiation was inactive: -0.718%.

Q: Which potentiation does the source give for CCOC(=O)c1ccc(NP(C)(=O)Oc2ccc(F)cc2)cc1 (stereo not drawn) here?
A: The potentiation was inactive: -0.15%.

Q: Which potentiation does the source give for COc1ccc(OP(C)(=O)Nc2ccc(SC(F)(F)F)cc2)cc1 (stereo not drawn) here?
A: The potentiation was inactive: -4.2%.

Q: Which potentiation does the source give for CP(=O)(Nc1ccccc1)Oc1ccc(F)cc1 (stereo not drawn) here?
A: The potentiation was inactive: -0.15%.

Q: CCCCCOc1ccc(NP(C)(=O)Oc2ccc(Cl)cc2Cl)cc1 (stereo not drawn) was tested. Which potentiation did it give?
A: Its potentiation is inactive: 17.1%.

Q: With CCN(CC)CCCOC(=O)C(O)(c1ccccc1)C1CCCCC1 (stereo not drawn) as the compound, how does the potentiation read?
A: Its potentiation is inactive: 1.55%.

Q: How did the potentiation turn out when CP(=O)(Nc1ccccc1F)Oc1ccccc1 (stereo not drawn) was run?
A: Its potentiation is inactive: -1.45%.

Q: Which potentiation does the source give for CC(C)c1ccc(OP(C)(=O)Nc2ccc(SC(F)(F)F)cc2)cc1 (stereo not drawn) here?
A: Its potentiation is inactive: -13.7%.

Q: How did the potentiation turn out when O=C(OCCN1CCN(CCOCc2ccccc2)CC1)C(O)(c1ccccc1)c1ccccc1 was run?
A: Its potentiation is inactive: -3.7%.

Q: How did the potentiation turn out when CCOP(C)(=S)SCC(=O)NC(C)(CC)C(=O)O (stereo not drawn) was run?
A: The potentiation was inactive: -6.5%.

Q: With CP(=O)(Nc1ccc(SC(F)(F)F)cc1)Oc1ccc(F)cc1 (stereo not drawn) as the compound, how does the potentiation read?
A: The potentiation was inactive: -5.5%.

Q: For Cc1ccccc1NP(C)(=O)Nc1ccccc1C, which potentiation is on record?
A: Its potentiation is inactive: -3.6%.

Q: For CP(=O)(Nc1ccc2c(c1)OCCO2)Oc1ccccc1 (stereo not drawn), which potentiation is on record?
A: Its potentiation is inactive: -1.9%.

Q: Which potentiation does the source give for CN(C)CCOC(=O)C(O)(c1ccccc1)C1CCCCC1 (stereo not drawn) here?
A: The potentiation was inactive: -0.7%.

Q: With COc1ccc(NP(C)(=O)Oc2ccccc2OC)cc1 (stereo not drawn) as the compound, how does the potentiation read?
A: The potentiation was inactive: -3.15%.

Q: For COc1ccc(OP(C)(=O)Nc2cccc(Br)c2)cc1 (stereo not drawn), which potentiation is on record?
A: The potentiation was inactive: -3.41%.

Q: Which potentiation does the source give for O=[N+]([O-])c1ccc(OP2(=O)COCCO2)cc1 (stereo not drawn) here?
A: The potentiation was inactive: -4.55%.

Q: With Cc1cc(-c2cccc3ccccc23)c(C)cn1.O=[N+]([O-])c1cc([N+](=O)[O-])c(O)c([N+](=O)[O-])c1 as the compound, how does the potentiation read?
A: The potentiation was inactive: -1.8%.

Q: How did the potentiation turn out when O=[N+]([O-])c1cc([N+](=O)[O-])c(Nc2nnnn2CCO)c([N+](=O)[O-])c1 was run?
A: The potentiation was inactive: 1.7%.

Q: How did the potentiation turn out when CC1=C2N=C(C=C3N=C(C(C)=C4[N-][C@@](C)([C@@H]5N=C1[C@](C)(CCC(=O)NC[C@@H](C)OP(=O)([O-])O[C@H]1[C@@H](O)[C@@H](n6cnc7cc(C)c(C)cc76)O[C@@H]1CO)[C@H]5CC(N)=O)[C@@](C)(CC(N)=O)[C@@H]4CCC(N)=O)[C@@](C)(CC(N)=O)[C@@H]3CCC(N)=O)C(C)(C)[C@@H]2CCC(N)=O.[C-]#N.[Co+3] was run?
A: Its potentiation is inactive: -1.05%.

Q: For CP(=O)(Nc1ccc(SC(F)(F)F)cc1)Oc1ccccc1 (stereo not drawn), which potentiation is on record?
A: Its potentiation is inactive: -0.35%.

Q: CCCOc1ccc(NP(C)(=O)Oc2ccc(Cl)cc2)cc1 (stereo not drawn) was tested. Which potentiation did it give?
A: The potentiation was inactive: -4.6%.

Q: Which potentiation does the source give for CN1CCCCC1COC(=O)C1(O)c2ccccc2CCc2ccccc21 (stereo not drawn) here?
A: Its potentiation is inactive: -1.6%.

Q: With COc1ccccc1OP(C)(=O)Nc1c(C)cccc1C (stereo not drawn) as the compound, how does the potentiation read?
A: The potentiation was inactive: 4.5%.

Q: Which potentiation does the source give for O=[N+]([O-])c1cc([N+](=O)[O-])c(-n2nnc3ccccc32)c([N+](=O)[O-])c1 here?
A: The potentiation was inactive: -2.2%.

Q: Which potentiation does the source give for Cc1nc2ccc3ccccc3c2s1.O=[N+]([O-])c1cc([N+](=O)[O-])c(O)c([N+](=O)[O-])c1 here?
A: Its potentiation is inactive: -1.3%.

Q: Which potentiation does the source give for CCOC(=O)c1ccc(NP(C)(=O)Oc2cc(C)cc(C)c2)cc1 (stereo not drawn) here?
A: The potentiation was inactive: -6.05%.

Q: Cc1cc(C)cc(OP(C)(=O)Nc2ccc(C)cc2C)c1 (stereo not drawn) was tested. Which potentiation did it give?
A: The potentiation was inactive: 3.65%.

Q: COc1ccccc1OP(C)(=O)Nc1cccc(Br)c1 (stereo not drawn) was tested. Which potentiation did it give?
A: Its potentiation is inactive: -3.55%.

Q: Cc1ccc(C)c(NP(C)(=O)Oc2ccccc2)c1 (stereo not drawn) was tested. Which potentiation did it give?
A: Its potentiation is inactive: -10%.

Q: For CP(=O)(Nc1cccc(Br)c1)Oc1ccccc1 (stereo not drawn), which potentiation is on record?
A: The potentiation was inactive: -2.2%.

Q: For Cc1cc(C)cc(OP(C)(=O)Nc2ccccn2)c1 (stereo not drawn), which potentiation is on record?
A: The potentiation was inactive: 1.45%.

Q: Which potentiation does the source give for CC1=NCCc2c1[nH]c1ccccc21.O=[N+]([O-])c1cc([N+](=O)[O-])c(O)c([N+](=O)[O-])c1 here?
A: Its potentiation is inactive: -0.85%.
